# Values quoted from earlier work as cited in paper PMC5412686 (Biopharmaceutics & Drug Disposition, 2017).
# Where two headings read alike, the source gives them in different places.
# Columns and labels:
# [1] = Rats, fraction unbound; ref Supplemental Table S1; cited from earlier work
# [2] = Humans, fraction unbound in plasma; ref Supplemental Table S1; cited from earlier work
Compound,f up [1],f up [2]
Cc1ncc2n1-c1ccc(Cl)cc1C(c1ccccc1F)=NC2 [Midazolam],0.06,
CCOC(=O)C1=C(C)NC(C)=C(C(=O)OC)C1c1cccc([N+](=O)[O-])c1 (centres unmarked) [Nitrendipine],0.04,0.01
COc1ccc2[nH]c([S+]([O-])Cc3ncc(C)c(OC)c3C)nc2c1 (centres unmarked) [Omeprazole],0.13,
Cc1ccc(-c2nc3ccc(C)cn3c2CC(=O)N(C)C)cc1 [Zolpidem],0.13,
